# Assays:
# Amino acid sequences for entries named in this document (tags omitted). Residues count along the entry.
# UniProt Q16552, 20-155 limits assumed: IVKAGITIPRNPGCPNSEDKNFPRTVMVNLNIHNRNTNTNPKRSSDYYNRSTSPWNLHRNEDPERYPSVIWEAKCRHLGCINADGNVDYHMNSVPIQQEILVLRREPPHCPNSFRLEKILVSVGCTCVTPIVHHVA
# UniProt Q16552, 24-155 limits assumed: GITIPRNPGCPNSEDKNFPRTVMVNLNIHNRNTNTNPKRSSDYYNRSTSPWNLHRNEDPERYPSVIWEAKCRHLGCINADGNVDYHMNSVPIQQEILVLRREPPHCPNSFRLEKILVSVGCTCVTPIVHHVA
# UniProt Q96PD4, 31-163 limits assumed: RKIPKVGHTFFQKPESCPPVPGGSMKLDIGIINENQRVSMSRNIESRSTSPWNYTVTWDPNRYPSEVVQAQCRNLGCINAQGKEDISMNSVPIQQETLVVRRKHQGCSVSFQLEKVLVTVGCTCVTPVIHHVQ
# Human IL-17A = Human IL-17A (Homo sapiens, UniProt Q16552); assay: IL-17A enzyme-linked immunosorbent assay (competitive ELISA, IL-17A/IL-17Ra receptor-ligand binding); conditions: read-out: IC50, inhibitory activity of compounds on human IL-17A, human IL-17A coated plate, human IL-17Ra
# Human IL-17AF = Human IL-17AF (Homo sapiens, UniProt Q16552+Q96PD4); assay: IL-17AF ELISA (competitive ELISA, IL-17AF/IL-17Ra receptor-ligand binding); conditions: read-out: IC50, inhibitory activity of compounds on human IL-17AF, human IL-17AF coated plate, human IL-17Ra
IC50 (Human IL-17A) [µM],IC50 (Human IL-17AF) [µM],Structure (SMILES)
0.05 to 0.15,,"Cc1[nH]nc2c1-c1cc(F)c(NC(=O)[C@@H](NC(=O)c3ccnn3C(C)C(F)F)C(C3CC3)C3CC3)cc1COCC2 (single isomer, unassigned)"
< 0.05,0.1 to 0.5,"Cc1[nH]nc2c1-c1cc(F)c(NC(=O)[C@@H](NC(=O)c3ccnn3C(C)C)C(C3CC3)C3CC3)cc1COC(C)C2 (single isomer, unassigned)"

# From patent publication US20260258050A1, “IMMUNOMODULATOR” (HITGEN INC., priority 2023, published 2026)
